This is an account of results in US20090304869A1, “Peptides Having an Ace Inhibiting Effect” (priority 2005, published 2009).

Sequences of proteins named here, by UniProt entry; tags and fusion partners are left off. Residues count along the entry.
UniProt P12821, 30-1306, species assumed: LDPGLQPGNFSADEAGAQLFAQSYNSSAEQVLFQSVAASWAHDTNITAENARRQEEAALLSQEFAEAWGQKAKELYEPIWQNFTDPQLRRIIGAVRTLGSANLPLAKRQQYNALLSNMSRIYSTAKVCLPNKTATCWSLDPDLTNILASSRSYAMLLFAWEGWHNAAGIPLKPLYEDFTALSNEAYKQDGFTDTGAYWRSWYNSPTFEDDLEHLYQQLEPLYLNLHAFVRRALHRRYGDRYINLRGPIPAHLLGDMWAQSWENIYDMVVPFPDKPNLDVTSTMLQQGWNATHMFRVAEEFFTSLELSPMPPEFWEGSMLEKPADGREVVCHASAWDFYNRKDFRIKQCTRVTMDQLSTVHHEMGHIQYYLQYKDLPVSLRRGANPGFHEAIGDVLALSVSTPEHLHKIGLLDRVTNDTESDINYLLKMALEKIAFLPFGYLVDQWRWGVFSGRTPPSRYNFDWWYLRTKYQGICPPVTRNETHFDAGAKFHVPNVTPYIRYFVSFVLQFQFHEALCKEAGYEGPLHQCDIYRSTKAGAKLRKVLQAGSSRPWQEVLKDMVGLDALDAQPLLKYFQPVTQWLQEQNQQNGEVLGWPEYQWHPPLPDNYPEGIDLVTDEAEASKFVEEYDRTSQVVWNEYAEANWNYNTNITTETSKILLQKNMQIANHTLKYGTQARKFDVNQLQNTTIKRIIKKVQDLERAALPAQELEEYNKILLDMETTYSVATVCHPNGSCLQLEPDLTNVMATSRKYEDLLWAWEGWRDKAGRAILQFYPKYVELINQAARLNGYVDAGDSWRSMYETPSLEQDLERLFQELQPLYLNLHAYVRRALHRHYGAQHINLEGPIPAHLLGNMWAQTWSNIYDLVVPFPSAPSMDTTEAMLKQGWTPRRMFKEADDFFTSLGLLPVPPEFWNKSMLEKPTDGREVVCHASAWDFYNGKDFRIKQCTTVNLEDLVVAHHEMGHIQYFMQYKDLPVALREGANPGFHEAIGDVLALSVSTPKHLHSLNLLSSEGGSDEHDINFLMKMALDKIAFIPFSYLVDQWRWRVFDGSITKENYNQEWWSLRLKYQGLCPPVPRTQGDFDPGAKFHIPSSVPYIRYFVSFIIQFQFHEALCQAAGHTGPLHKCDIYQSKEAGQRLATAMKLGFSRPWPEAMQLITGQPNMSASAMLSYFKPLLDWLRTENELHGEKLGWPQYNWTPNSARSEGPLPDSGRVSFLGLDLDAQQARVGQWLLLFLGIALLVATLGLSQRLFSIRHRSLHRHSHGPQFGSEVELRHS

In one test the test system is ACE. Briefly: Modified Matsui ACE inhibition assay. It is filed as biochemical. How it is done:
This ACE inhibition activity was assayed according to the method of Matsui et al. (Matsui, T. et al. (1992) Biosci. Biotech. Biochem. 56: 517-518) with the modifications described below.
For each sample 75 μl 3 mM hippuryl histidine leucine (Hip-His-Leu, Sigma chemicals Co.; the chemical was dissolved in 250 mM Borate containing 200 mM NaCl, pH 8.3); 20 μl 0.1 U/ml ACE (obtained at Sigma) or H2O, and 25 μl sample or H2O were mixed (see Table 1). The mixtures were incubated at 37° C. and stopped after 30 min by adding 125 μl 0.5 M HCl. Subsequently, 225 μl bicine/NaOH solution (1 M NaOH:0.25 M bicine (4:6)) was added, followed by 25 μl 0.1 M TNBS (2,4,6-Trinitrobenzenesulfonic acid, Fluka, Switzerland; in 0.1 M Na2HPO4). After incubation for 20 min. at 37° C., 4, ml 4 mM Na2SO3 in 0.2 M NaH2PO4 was added and the absorbance at 416 nm was measured with UV/Vis spectrophotometer (Shimadzu UV-1601 with a CPS controller, Netherlands).
The amount of ACE inhibition (ACEI) activity was calculated as a percentage of inhibition compared with the conversion rate of ACE in the absence of an inhibitor:
wherein • C1=Absorbance without ACE inhibitory component (=max. ACE activity) [AU]. • C2=Absorbance without ACE inhibitory component and without ACE (background) [AU]. • S1=Absorbance in the presence of ACE and the ACE inhibitory component [AU]. • S2=Absorbance in the presence of the ACE inhibitory component, but without ACE [AU].

Test [1] deals with Angiotensin Converting Enzyme (ACE) (Homo sapiens, UniProt P12821). Briefly: At-line ACE assay (HHL hydrolysis, flash-HPLC read-out). Format: biochemical. An excerpt:
MAP and ITP as novel ACE inhibiting peptides were identified in samples by using 2-dimensional-chromatographic-separation combined with an at-line ACE activity assay and mass spectrometry for identification. In the first analysis the peptide mixture is separated on an ODS3 liquid chromatography (LC) column. An activity profile is created from fractions collected from the analysis using a slightly modified Matsui assay. In the second analysis the fractions from the first column showing a high activity are further separated on a Biosuite LC column using a different gradient profile. The fractions collected from this second column are split into two parts, one part is used for the activity measurement while MS and MS-MS is applied on the other part for identification of the peptides present.
20 μl of a 10% (w/v) solution of PH in Milli-Q water was injected on a 150×2.1 Inertsil 5 ODS3 column with a particle size of 5 μm (Varian, Middelburg, the Netherlands). Mobile phase A consisted of a 0.1% trifluoroacetic acid (TFA) solution in Milli-Q water. Mobile phase B consisted of a 0.1% TFA solution in acetonitrile. The initial eluent composition was 100% A. The eluent was kept at 100% A for 5 minutes. Then a linear gradient was started in 10 minutes to 5% B, followed by a linear gradient in 10 minutes to 30% B. The column was flushed by raising the concentration of B to 70% in 5 minutes, and was kept at 70% B for another 5 minutes. After this the eluent was reduced to 100% A in 1 minute and equilibrated for 9 minutes. The total run time was 50 minutes. The effluent flow was 0.2 ml min^−1 and the column temperature was set at 60° C. A UV chromatogram was recorded at 215 nm. […] After the reaction the plate was cooled in melting ice and analysed on a flash-HPLC-column. […] Hippuric acid (H) and HHL were monitored at 280 nm. The peak heights of H and HHL were measured and the ACEI of each fraction was calculated according to the equation: […]
The degree of hydrolysis (DH) was calculated by expressing the peak height of H as a fraction of the sum of the peak heights of H and HHL.

In general, IC50 refers to the concentration that inhibits the measured activity by half. For `CC[C@H](C)[C@H](N)C(=O)N1CCC[C@H]1C(=O)N1CCC[C@H]1C(=O)O` [IPP, reference compound], the concentration for half-maximal inhibition (IC50) in the test with ACE was found to be 2000 nM; in test [1], 7.1 µM.
